## Measured affinities in a library of Ab-14 light chain variants

The measurements come from Li et al. 2023 (doi:10.1038/s41467-023-39022-2) through the FLAb antibody collection.

All variants were tested on one target, the spike HR2 peptide PDVDLGDISGINAS (SARS-CoV-2).

Parent: Ab-14, a human scFv built as VH, three GGGGS repeats, VL. Only the CDRs of the light chain vary.
VH: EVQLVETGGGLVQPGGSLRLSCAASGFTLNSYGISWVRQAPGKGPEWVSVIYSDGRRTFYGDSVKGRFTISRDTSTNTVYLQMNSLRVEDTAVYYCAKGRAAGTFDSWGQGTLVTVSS
VL: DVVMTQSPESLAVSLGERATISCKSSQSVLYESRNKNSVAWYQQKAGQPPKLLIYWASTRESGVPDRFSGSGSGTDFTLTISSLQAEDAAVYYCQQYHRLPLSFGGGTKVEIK

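The starting antibody came from a phage panning campaign against this peptide. Designed CDR sequences, proposed from the first random library and measured here. Their group label is 14L_En_HC (En: ensemble of fine-tuned language models; HC: hill climbing; a sequence that several methods proposed may carry one label only). AlphaSeq pools MATa yeast showing the antibodies with MATalpha yeast showing the peptide. After mating in shaken culture at 30 °C for 16 h, diploids were selected and their barcode pairs sequenced. Each replicate has its own calibration line, from reference interactions of the BCL2 family. The assay was run in six technical replicates.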

Variants are written as CDR1, CDR2 and CDR3 of the light chain (limits as in the source). Parent: KSSQSVLYESRNKNSVA, WASTRES, QQYHRLPLS.
Affinities are written as log10 Kd with Kd in nM; a lower number is a better binder.
"ND" means that the variant was in the library but no mating with the target was seen in that replicate; the authors take this as a sign of poor binding, and no number exists.
The authors averaged sequences with at least three values out of six and counted those with two or fewer as poor binders.
The range of this assay differs from that of the first round, and the authors advise against merging the two.
Of ten entries with the parent sequence, four were seen in most replicates (averages 0.34 to 2.37), three in one and three in none, so single entries are noisy.
Three control strains display no target. For all light chain designs, 4% of the pairings with them gave a signal, with a median of 2.64 and one signal in twenty below 1.59, so weak values seen in few replicates may be background. The control count says in how many pairings with the empty strains this scFv gave a signal, with their mean in brackets.

CDR-L1,CDR-L2,CDR-L3,"log10 Kd, replicates",empty controls
NLYQSMNFLGRVMNSIA,DASTIGD,QQYHRLPLS,0.40 0.30 0.49 0.44 0.44 1.39,0 of 18
TISQSVLMTGLNRNSVA,QAEERVE,QQYHRLPLS,0.84 0.63 0.69 0.16 0.69 0.30,0 of 18
KLMVSTMLESHNKNSIA,DLSTRGN,QQYHRLPLS,-0.14 -0.23 0.31 0.22 -0.11 0.03,1 of 18 (2.23)
ALSQSADMTSRNVNSVA,DLTTREN,QQYHRLPLS,0.79 0.75 0.55 0.54 0.35 0.60,0 of 18
KITQLVMETSKNKNNVA,EVSTVPD,QQYHRLPLS,0.42 0.55 0.55 0.62 0.74 0.61,0 of 18
MISMLTMYGSRNKNSVA,DLSTRGS,QQYHRLPLS,0.86 1.06 0.46 0.75 2.45 1.75,1 of 18 (2.56)
KLPLATMQELVSKNNVA,ELSTRGS,QQYHRLPLS,1.93 1.64 1.04 0.96 1.01 1.94,1 of 18 (2.41)
HISPSFMVESRLKNSVA,QTETREE,QQYDRLPLS,0.58 0.09 0.29 0.02 0.60 0.48,0 of 18
KLSGFHNVESINKSNVA,EMVTRES,QQYDRLPLS,0.95 1.43 1.23 1.06 1.07 1.46,0 of 18
MISQLFMYGSRHYNSVA,QASTRES,QQYDRLPLI,1.42 1.13 1.34 1.28 1.20 1.61,0 of 18
KLLQEVQGRSQNRNSVA,HNSTRED,QQYDRLPLE,2.62 ND ND 3.19 2.94 ND,0 of 18
SLMQVAGYESNNKNSIA,DLRTRES,QQYHRLPLS,0.96 0.53 0.95 0.39 0.55 0.54,3 of 18 (2.33)
KLTQYVGGESRNKSSLA,DNSTRES,QQYHRLPLS,2.94 ND 2.76 2.67 2.21 4.01,0 of 18
NSSGMGMFEERNKNSVA,HASTREE,QQYERLPLS,-0.17 -0.28 -0.41 -0.62 -0.55 -0.41,0 of 18
TISQSVNMTSRGKNSVA,QAEMRED,QQYDRLPLS,1.66 1.64 1.44 1.66 1.62 1.41,0 of 18
KLLQSVNFGSRALNSVA,QMETRED,QQYHRLPLS,0.96 0.55 0.37 0.72 0.19 0.74,0 of 18
MISDLMMYGSRAKNPIA,NASTREY,QQYHRLPLE,1.84 1.38 0.76 1.21 2.30 1.21,0 of 18
TIGQMFNGETRNRNSVA,QASTRES,QSYDRLPLS,1.17 0.94 1.21 0.97 1.21 1.16,1 of 18 (2.91)
MISQTFLIGMKAKNSVA,QTSTRES,QQYDRLPLS,0.75 0.24 0.54 1.08 0.57 1.32,0 of 18
KISQMYRYEQQNSSSIA,EVTTRLN,QSYHRLPLS,ND ND ND ND ND ND,2 of 18 (2.78)
TISQLMLMESRNKNNVA,GESTRES,QCYHRLPLS,0.54 0.84 0.25 0.33 0.40 0.86,0 of 18
IISQSVLGEYHNKNNVA,QTSERGQ,QQYDRLPLS,0.41 0.35 0.40 0.23 0.45 0.54,2 of 18 (3.10)
KLSEVAHFESRKKNSVA,ENSTREE,QQYDHLPLS,1.64 1.46 2.07 2.47 1.27 2.02,1 of 18 (2.57)
KLGSMVLLEHGNHNSIA,QQSTREE,QQYDRLPLS,0.78 1.03 1.41 0.82 1.09 0.65,2 of 18 (2.43)
TISTSMRYESSLHNAIA,NAQTRES,QQYHRLPLS,0.17 0.33 0.11 0.17 0.21 0.48,1 of 18 (3.03)
TLTQVTMVESYLKNSVA,QASTRLE,QDYHRLPLS,1.54 1.01 0.79 0.58 0.68 1.01,0 of 18
KISMYLNKEKKEGNNVA,EMVTREA,QQYDRLPLS,1.33 0.65 0.63 0.51 0.64 0.78,0 of 18
KLSQFYRMEMRNKNSVA,DNSTRES,QDYDRLPLS,2.04 ND ND ND ND ND,0 of 18
KLYQSTAMTSRKKNNVA,DLNERER,QQYFRLPLS,0.47 -0.04 0.43 0.13 0.02 0.68,2 of 18 (2.82)
KILQEIENQTYNRNSVA,HSTTRED,QSYHRLPLS,1.21 1.30 1.07 1.08 1.30 1.25,1 of 18 (3.66)
KLRQVTGYESYAKNSVA,QTSTRAS,QDYHRLPLS,1.08 1.42 0.75 0.71 0.84 0.98,1 of 18 (2.27)
KLIQSVAMSSRNKDSIA,DNSTRES,QQYHRLPLS,1.08 1.15 1.00 0.85 1.06 0.92,1 of 18 (1.87)
TLGGVMDMTSRNVNSVA,DLTTRGN,QQYHRLPLS,-0.01 0.01 0.08 -0.30 -0.21 0.03,1 of 18 (2.44)
HVSESVLSQSKMKNSVA,ENSTRES,QQYDRLPLS,1.01 1.34 1.03 1.68 1.80 1.31,0 of 18
KLSQSVMFMSGVYNSVA,QMSTRAE,QQYHRLPLS,0.89 0.71 0.60 0.65 0.81 0.61,1 of 18 (2.62)
KLRQVTGYESFNKNSVA,QTETREN,QDYDRLPLS,ND ND ND ND ND ND,3 of 18 (1.48)
TISQSVNMTSHGRNSVA,QAEMREE,QQYDRLPLS,1.70 1.75 0.87 1.24 0.72 0.84,0 of 18
KIAATSLYEQGAANSVA,QNSTRES,QQYHRLPLS,0.74 0.65 0.39 1.08 0.79 1.03,1 of 18 (2.89)
IISGSMLMESRNKNSVA,NAQTREY,QHYDRLPLS,ND ND ND 0.63 ND ND,0 of 18
KIGSGTNGEKFQSNSVA,QASTREE,QQYHRLPLS,0.22 0.25 0.17 0.34 -0.05 0.33,0 of 18
ALSQSMDMTSRNKNSVA,DLTTRLN,QQYHRLPLS,0.22 0.32 0.37 0.06 0.32 0.44,2 of 18 (2.65)
HMSQVTMYGMWMRNSVA,QTSTREE,QQYDRLPLS,0.95 0.77 0.66 1.14 0.97 1.20,1 of 18 (2.46)
HLGGVTEYEMRNKNSVA,QMTTRES,QQYHRLPLS,0.55 0.28 0.12 0.24 0.13 0.30,1 of 18 (2.73)
HLSESVKMESRNTNSVA,DNSTRGS,QQYDRLPLS,2.02 1.66 1.64 1.87 1.88 2.20,0 of 18
KLYMTVGYEQRNKSRVA,DNNTRES,QQYDRLPLS,2.26 ND 2.52 ND ND ND,0 of 18
KLSASTSYESLNKNSVA,ELTTRGG,QQYNRLPLS,0.71 0.51 0.61 0.30 0.79 0.67,1 of 18 (3.08)

Repeated from above, the 7 best binders with a signal in all replicates:

CDR-L1,CDR-L2,CDR-L3,"log10 Kd, replicates",empty controls
NSSGMGMFEERNKNSVA,HASTREE,QQYERLPLS,-0.17 -0.28 -0.41 -0.62 -0.55 -0.41,0 of 18
TLGGVMDMTSRNVNSVA,DLTTRGN,QQYHRLPLS,-0.01 0.01 0.08 -0.30 -0.21 0.03,1 of 18 (2.44)
KLMVSTMLESHNKNSIA,DLSTRGN,QQYHRLPLS,-0.14 -0.23 0.31 0.22 -0.11 0.03,1 of 18 (2.23)
KIGSGTNGEKFQSNSVA,QASTREE,QQYHRLPLS,0.22 0.25 0.17 0.34 -0.05 0.33,0 of 18
TISTSMRYESSLHNAIA,NAQTRES,QQYHRLPLS,0.17 0.33 0.11 0.17 0.21 0.48,1 of 18 (3.03)
HLGGVTEYEMRNKNSVA,QMTTRES,QQYHRLPLS,0.55 0.28 0.12 0.24 0.13 0.30,1 of 18 (2.73)
KLYQSTAMTSRKKNNVA,DLNERER,QQYFRLPLS,0.47 -0.04 0.43 0.13 0.02 0.68,2 of 18 (2.82)